Our source for the inhibition values is PubChem BioAssay AID624504 (Sanford-Burnham Center for Chemical Genomics, 2012).

Molecules are shown by their SMILES. This is a selection; strong and weak results do not stand in their true shares. Active and inactive are the calls of the source. Cut-off read from the data, not from the text of the source: active = inhibition above about 22%; inactive = the rest.

The test in a line: fluorescence retest of MPTP screen hits in isolated mitochondria, single concentration (AID 624504).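 Note: 0% = DMSO vehicle and 100% = positive control.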 As to conditions: membrane potential, Rhodamine 123 fluorescence, at 10 µM, hits give high values.
In the case of `CCC1=CC2Cc3nc4ccc(Cl)cc4c(N)c3C(C1)C2` (stereo not given), the inhibition was active: 84.6%.
The figure for `O=[N+]([O-])c1ccc(-c2cc([N+](=O)[O-])c(O)c([N+](=O)[O-])c2)cc1` is active: 61.1%; for `CSc1ccc(Nc2c([N+](=O)[O-])cc([N+](=O)[O-])cc2[N+](=O)[O-])cc1` it is active: 70.4%; for `O=c1c2cc([N+](=O)[O-])ccc2[nH]c2c([N+](=O)[O-])cc([N+](=O)[O-])cc12` it is active: 92.4%.
The figure for `O=[N+]([O-])c1ccc(O)c(/C=N/Nc2ccc([N+](=O)[O-])cc2[N+](=O)[O-])c1` is active: 63.3%.

By inhibition is commonly meant the relative decrease from the control value, in per cent.
